Assay results: PubChem BioAssay AID2099 (Broad Institute, 2009)
Values joined by “and” are separate entries in the source; they are usually repeats but may differ in a detail not shown here. Equal values may be shown once. The entries are a selection whose mix differs from that of the whole data set. Some results for these compounds are left out of this collection, so the calls shown say nothing about other tests. Active and inactive are the calls of the source.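 Rule for the calls: active = more than half of a compound's replicate wells show inhibition beyond 50%, single wells judged on their own value; inconclusive = some, but no more than half, of replicates pass 50% inhibition; inactive = no replicate passes 50% inhibition.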

Amino acid sequences for entries named in this document (tags omitted). Residues count along the entry.
UniProt Q9H3R0, 1-420 limits assumed: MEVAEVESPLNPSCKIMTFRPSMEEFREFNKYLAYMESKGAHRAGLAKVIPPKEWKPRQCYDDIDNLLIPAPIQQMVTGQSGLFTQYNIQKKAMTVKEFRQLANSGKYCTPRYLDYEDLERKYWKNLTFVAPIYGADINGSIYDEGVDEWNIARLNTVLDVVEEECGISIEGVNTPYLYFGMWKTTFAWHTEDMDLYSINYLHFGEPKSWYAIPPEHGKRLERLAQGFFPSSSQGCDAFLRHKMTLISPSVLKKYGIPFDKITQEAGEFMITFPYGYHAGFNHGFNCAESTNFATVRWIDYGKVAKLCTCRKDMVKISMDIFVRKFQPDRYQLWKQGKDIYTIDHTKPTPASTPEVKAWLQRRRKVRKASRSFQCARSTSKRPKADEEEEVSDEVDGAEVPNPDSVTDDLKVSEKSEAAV

Target: Lysine-specific demethylase 4C (Homo sapiens) (UniProt Q9H3R0)
Experiment: inhibitors of GASC-1 histone demethylase, primary screen, biochemical, fluorescence, DELFIA europium (AID 2099);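 note: signal counts dimethyl H3K9 product captured on neutravidin plate; 0% = median of DMSO wells and 100% = 0.3 times that DMSO median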
Settings: GST-JMJD2C(1-420) H3K9me3 demethylation, at 2.35 µM, stronger effect = higher value

Row | SMILES | inhibition
1 | Cc1ccccc1C(=O)NCC1(N2CCCCC2)CCCCC1 | inactive: -1.28%
2 | CN(C)C1CCCC1OC(=O)C(O)(c1ccccc1)c1ccccc1 (centres undefined) | inactive: 11.4%
3 | CN(C)c1ccc(C(=O)NCC2(N(C)C)CCCCC2)cc1 | inactive: -10.3%
4 | C=CCN1CCN(CCOC(=O)C(O)(c2ccccc2)c2ccccc2)CC1 | inactive: 1.2%
5 | O=C(NCC1(N2CCCCC2)CCCCC1)c1cc(F)c(F)cc1Cl | inactive: -3%
6 | COc1ccc(C(=O)NCC2(N(C)C)CCCCC2)cc1 | inactive: 0.721%
7 | Cc1cc(C(=O)NCC2(N3CCCCC3)CCCCC2)ccc1[N+](=O)[O-] | inactive: -3.82%
8 | CCN1CCCC(OC(=O)C2(O)c3ccccc3C=Cc3ccccc32)C1 (centres undefined) | inactive: -3.33%
9 | O=C(NCC1(N2CCCCC2)CCCCC1)c1cccc(Br)c1 | inactive: 2.96%
10 | O=C(NCC1(N2CCCCC2)CCCCC1)c1cc([N+](=O)[O-])ccc1Cl | inactive: -13%
11 | CN1[C@@H]2CC[C@H]1CC(OC(=O)C(O)(c1ccccc1)c1ccccc1)C2 (some centres undefined) | inactive: 0.591%
12 | CCN(CC)CC(C)C(C)OC(=O)C(O)(c1ccccc1)c1ccccc1 (centres undefined) | inactive: -4.8%
13 | COc1cc(SC)ccc1C(=O)NCC1(N(C)C)CCCCC1 | inactive: -5.38%
14 | CC(C)N1C(=O)CC2(CCN(CCOC(=O)C(O)(c3ccccc3)c3ccccc3)CC2)C1=O | inactive: -9.4%
15 | Cc1ccc(C(=O)NCC2(N3CCCCC3)CCCCC2)cc1 | inactive: -6.23%
16 | O=C(OC1CN2CCC1CC2)C(CO)(c1ccccc1)c1ccccc1 (centres undefined) | inactive: -3.24% and inactive: 22.6%
17 | COc1ccc(Br)c(C(=O)NCC2(N3CCCCC3)CCCCC2)c1 | inactive: 14.9%
18 | CC(C)Oc1ccc(C(=O)NCC2(N(C)C)CCCCC2)cc1 | inactive: -9.43%
19 | CN(C)c1cccc(C(=O)NCC2(N(C)C)CCCCC2)c1 | inactive: -4.16%
20 | CN(C)C1(CNC(=O)c2ccc(Br)cc2)CCCCC1 | inactive: -19.7%
21 | COc1cc(C(=O)NCC2(N(C)C)CCCCC2)c([N+](=O)[O-])cc1OC | inactive: 11%
22 | COc1cccc(C(=O)NCC2(N3CCCCC3)CCCCC2)c1 | inactive: 0.327%
23 | COc1ccc(Cl)cc1C(=O)NCC1(N(C)C)CCCCC1 | inactive: -2.2%
24 | O=C(NCC1(N2CCCCC2)CCCCC1)c1cccc(Cl)c1 | inactive: -29.3%
